Experimental data published in patent US20250090557A1 (priority 2020, published 2025).

Tested on: Calu3 cells
Conditions: uninfected Calu3, 0.25 μM, 24 h

brusatol
cytotoxicity (XTT assay): cytotoxic
